Sequences of proteins named here, by UniProt entry; tags and fusion partners are left off. Residues count along the entry.
UniProt P05014, 24-189 A74T/E137V: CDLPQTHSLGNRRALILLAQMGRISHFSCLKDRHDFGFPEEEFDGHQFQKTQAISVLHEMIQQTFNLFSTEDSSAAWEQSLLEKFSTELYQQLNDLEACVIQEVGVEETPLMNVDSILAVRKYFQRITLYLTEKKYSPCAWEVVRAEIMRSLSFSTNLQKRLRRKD
UniProt P01570, 24-189: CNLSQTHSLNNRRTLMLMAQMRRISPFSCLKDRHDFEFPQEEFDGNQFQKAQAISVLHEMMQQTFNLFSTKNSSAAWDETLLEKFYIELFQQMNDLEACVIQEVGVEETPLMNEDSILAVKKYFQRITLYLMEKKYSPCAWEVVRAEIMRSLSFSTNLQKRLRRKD
UniProt P05015, 24-189: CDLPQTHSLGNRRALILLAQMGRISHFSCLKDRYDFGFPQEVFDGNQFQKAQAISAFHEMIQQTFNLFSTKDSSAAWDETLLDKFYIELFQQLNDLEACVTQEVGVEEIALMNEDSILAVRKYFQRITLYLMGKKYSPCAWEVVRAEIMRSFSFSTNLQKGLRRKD
UniProt P05013, 24-189: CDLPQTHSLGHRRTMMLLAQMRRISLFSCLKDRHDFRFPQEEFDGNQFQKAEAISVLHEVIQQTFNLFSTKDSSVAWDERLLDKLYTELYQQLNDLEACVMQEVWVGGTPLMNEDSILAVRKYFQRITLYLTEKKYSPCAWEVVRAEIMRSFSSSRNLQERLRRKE

In patent US20130101602A1 (ARGOS THERAPEUTICS, published 2013):

Tests used:
[1] = target: T1, recombinant human IFN-αB2 (human, UniProt P32881 24-189); experiment: cell-based or functional assay
[2] = target: T2, recombinant human IFN-α4b (human, UniProt P05014 24-189); experiment: SPR (Biacore) dissociation comparison, mAb immobilised, IFN-α injected
T2 construct: 4a and 4b are allelic forms of IFNA4; also called hIFN-α4b

[3] = target: T3, recombinant human IFN-αH2 (human, UniProt P01570 24-189); experiment: as above
T3 construct: also called hIFN-αH2

[4] = target: T4, recombinant human IFN-αWA (human, UniProt P05015 24-189); experiment: as above
T4 construct: also called hIFN-αWA

[5] = target: T5, recombinant human IFN-αK (human, UniProt P05013 24-189); experiment: as above
T5 construct: also called hIFN-αK

[6] = target: T1, recombinant human IFN-αB2; experiment: cell-based or functional assay; remark: listed apart in the source

IC50 value relative to hzACO-1 (RG assay) [1]	koff [2]	koff [3]	koff [4]	koff [5]	Binder	IC50 (read off the curve) (reporter gene assay) [6]
0.47					ACO-1 (murine anti-IFN-α antibody, recombinant) (antibody, V domains shown) VH: QVQLQQPGAELVKPGASVKLSCKASGYTFTNYWMHWVKQRPGQGLEWIGEINPSHGRTIYNENFKSKATLTVDKSSITAFMQLSSLTSEDSAVYFCARGGLGPAWFAYWGQGTLVTVSA VL: QIVLTQSPAIMSASPGEKVTLTCSAGSSVDSSYLYWYQQKPGSSPKLWIYSTSNLASGVPARFSGSGSGTSYSLTISSMEAEDAASYFCHQWSSYPFTFGSGTKLEIKR	
0.88	0.000155 s⁻¹	0.000328 s⁻¹	0.000366 s⁻¹	0.000341 s⁻¹	hzACO-1-kabat CDRH2 (antibody, V domains shown, The five single changes were worked out by comparing the two CDRs; Human IgG4(S241P)/kappa; also called traditionally CDR grafted humanized ACO-1) VH: QVQLVQSGAEVKKPGASVKVSCKASGYTFTNYWMHWVRQAPGQGLEWMGEINPSHGRTIYNENFKSRVTMTRDTSTSTVYMELSSLRSEDTAVYYCARGGLGPAWFAYWGQGTLVTVSS VL: EIVLTQSPATLSLSPGERATLSCSAGSSVDSSYLYWYQQKPGQAPRLLIYSTSNLASGIPARFSGSGSGTDFTLTISSLEPEDFAVYYCHQWSSYPFTFGQGTKLEIK	
					hzACO-1 (humanized ACO-1) (antibody, human IgG4, V domains shown, also called hzACO-1 IgG4; hzACO-1-IgG4) VH: QVQLVQSGAEVKKPGASVKVSCKASGYTFTNYWMHWVRQAPGQGLEWMGEINPSHGRTIYAQKFQGRVTMTRDTSTSTVYMELSSLRSEDTAVYYCARGGLGPAWFAYWGQGTLVTVSS VL: EIVLTQSPATLSLSPGERATLSCSAGSSVDSSYLYWYQQKPGQAPRLLIYSTSNLASGIPARFSGSGSGTDFTLTISSLEPEDFAVYYCHQWSSYPFTFGQGTKLEIKR	~0.1 µg/mL
